Experimental data as given in patent US10766903B2 (ALMAC DISCOVERY LIMITED, priority 2016, dated 2020).

Protein sequences, listed by entry. Tags and fused reporters are not part of them.
UniProt Q93009, whole entry: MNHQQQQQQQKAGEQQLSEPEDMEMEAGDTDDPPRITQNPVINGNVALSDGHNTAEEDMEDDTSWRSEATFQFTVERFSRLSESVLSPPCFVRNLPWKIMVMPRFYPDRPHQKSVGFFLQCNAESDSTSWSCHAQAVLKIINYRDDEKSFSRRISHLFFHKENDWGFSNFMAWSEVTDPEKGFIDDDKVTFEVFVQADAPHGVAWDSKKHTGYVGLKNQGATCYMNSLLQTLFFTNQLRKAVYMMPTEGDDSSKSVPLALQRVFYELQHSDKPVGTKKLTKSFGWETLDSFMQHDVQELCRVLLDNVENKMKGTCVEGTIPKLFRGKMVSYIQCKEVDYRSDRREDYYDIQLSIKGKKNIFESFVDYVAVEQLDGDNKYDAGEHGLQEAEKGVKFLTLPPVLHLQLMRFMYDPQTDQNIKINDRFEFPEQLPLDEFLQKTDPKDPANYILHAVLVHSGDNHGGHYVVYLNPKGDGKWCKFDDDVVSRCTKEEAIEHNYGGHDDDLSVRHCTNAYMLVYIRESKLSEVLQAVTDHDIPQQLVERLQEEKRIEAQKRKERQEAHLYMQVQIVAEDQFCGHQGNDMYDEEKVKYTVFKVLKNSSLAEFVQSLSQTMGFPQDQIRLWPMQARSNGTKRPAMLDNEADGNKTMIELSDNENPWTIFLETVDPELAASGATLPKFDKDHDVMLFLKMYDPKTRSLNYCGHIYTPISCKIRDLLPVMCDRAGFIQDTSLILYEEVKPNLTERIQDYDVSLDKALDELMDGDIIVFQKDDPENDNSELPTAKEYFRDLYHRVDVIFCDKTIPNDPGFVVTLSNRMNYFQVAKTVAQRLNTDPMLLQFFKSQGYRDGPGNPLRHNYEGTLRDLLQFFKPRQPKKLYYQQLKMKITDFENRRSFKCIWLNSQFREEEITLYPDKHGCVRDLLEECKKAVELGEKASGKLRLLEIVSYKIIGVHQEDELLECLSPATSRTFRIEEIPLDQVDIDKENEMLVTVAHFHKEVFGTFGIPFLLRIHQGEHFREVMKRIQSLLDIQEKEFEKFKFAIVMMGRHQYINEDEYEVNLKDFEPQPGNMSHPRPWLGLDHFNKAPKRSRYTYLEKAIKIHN

Columns and labels:
USP7 = USP7 (Homo sapiens (Human), UniProt Q93009); experiment: USP7 fluorescence polarisation (FP) biochemical assay, ubiquitin-Lys-TAMRA substrate; conditions: read-out: USP7 IC50; Table 1, R9a = H versus R9a = Cl
LNCaP cells = experiment: LNCaP proliferation assay (CellTiter-Glo); conditions: read-out: LNCaP EC50; Table 1, cell viability after 168 h

Compound `Cn1cc(-c2cccc(-n3ccc4c(=O)n(CC5(O)CCN(C(=O)C6(C)CC6)CC5)cnc43)c2)cn1` has an IC50 (USP7) of 330 nM and an EC50 (LNCaP cells) of 130 nM.

In the case of `CC1(C(=O)N2CCC(O)(Cn3cnc4c(ccn4-c4ccc(Cl)cc4)c3=O)CC2)CC1`, the IC50 (USP7) is reported as 390 nM and the EC50 (LNCaP cells) is reported as 49 nM.

In the case of `CC1(C(=O)N2CCC(O)(Cn3cnc4c(ccn4-c4ccc5c(c4)OCO5)c3=O)CC2)CC1`, the IC50 (USP7) is reported as 420 nM and the EC50 (LNCaP cells) is reported as 140 nM.
